What was measured:
p110β^E1051K = target: T1, p110β^E1051K (Homo sapiens, UniProt P42338, E1051K); assay: ADP-Glo lipid kinase assay at Km [ATP]; Ki from IC50 by Cheng-Prusoff; type: biochemical; conditions: read-out: TGX-221 ^b / Ki
T1 construct: gene PIK3CB; GST-His6-p110β+myc-p85α; with p85α (PIK3R1)

Chains of the proteins cited; added tags and fusions are not shown.
UniProt P42338, whole entry E1051K: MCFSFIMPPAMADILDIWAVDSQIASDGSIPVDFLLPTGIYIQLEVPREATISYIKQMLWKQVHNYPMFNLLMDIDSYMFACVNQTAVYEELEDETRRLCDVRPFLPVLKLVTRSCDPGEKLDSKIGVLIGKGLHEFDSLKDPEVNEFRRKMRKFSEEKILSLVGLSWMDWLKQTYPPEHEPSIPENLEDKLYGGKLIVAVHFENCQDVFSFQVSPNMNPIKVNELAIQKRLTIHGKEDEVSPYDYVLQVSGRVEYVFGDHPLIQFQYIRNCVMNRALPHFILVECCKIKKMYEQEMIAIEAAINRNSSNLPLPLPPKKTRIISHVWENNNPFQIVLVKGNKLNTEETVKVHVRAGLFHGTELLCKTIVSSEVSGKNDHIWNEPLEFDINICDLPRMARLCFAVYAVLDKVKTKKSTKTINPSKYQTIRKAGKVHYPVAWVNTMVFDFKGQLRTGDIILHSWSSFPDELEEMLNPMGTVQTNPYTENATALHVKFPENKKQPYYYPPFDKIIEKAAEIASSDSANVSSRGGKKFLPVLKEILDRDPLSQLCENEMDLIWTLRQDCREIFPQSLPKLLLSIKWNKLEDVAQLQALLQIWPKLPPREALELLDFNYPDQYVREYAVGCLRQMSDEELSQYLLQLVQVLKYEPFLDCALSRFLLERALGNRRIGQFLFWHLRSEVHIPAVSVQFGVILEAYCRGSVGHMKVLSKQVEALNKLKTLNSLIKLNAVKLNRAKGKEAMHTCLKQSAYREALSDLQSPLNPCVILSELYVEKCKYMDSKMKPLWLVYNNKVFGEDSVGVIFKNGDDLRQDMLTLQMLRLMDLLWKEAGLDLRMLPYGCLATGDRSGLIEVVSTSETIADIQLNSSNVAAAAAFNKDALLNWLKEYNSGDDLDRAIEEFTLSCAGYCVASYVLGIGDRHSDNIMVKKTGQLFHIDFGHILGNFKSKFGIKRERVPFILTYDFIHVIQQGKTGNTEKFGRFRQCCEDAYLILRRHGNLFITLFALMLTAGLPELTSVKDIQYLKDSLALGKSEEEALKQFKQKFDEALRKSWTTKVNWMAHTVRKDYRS

p110β = target: T2, p110β (Homo sapiens, UniProt P42338); assay: as above; type: biochemical; conditions: read-out: TGX-221 ^b / Ki
T2 construct: gene PIK3CB; GST-His6-p110β+myc-p85α; with p85α (PIK3R1)

Ki (p110β^E1051K): 9.32 ± 3.45 nM
Ki (p110β): 12.3 ± 1.47 nM
SMILES: Cc1cc(C(C)Nc2ccccc2)c2nc(N3CCOCC3)cc(=O)n2c1 (racemic) [TGX-221]

Source: paper PMC5740215, “Functional characterization of a novel somatic oncogenic mutation of PIK3CB” (Signal Transduction and Targeted Therapy, 2017)
